Protein sequences, listed by entry. Tags and fused reporters are not part of them. Residues count along the entry.
UniProt P47871, 26-477 limits assumed: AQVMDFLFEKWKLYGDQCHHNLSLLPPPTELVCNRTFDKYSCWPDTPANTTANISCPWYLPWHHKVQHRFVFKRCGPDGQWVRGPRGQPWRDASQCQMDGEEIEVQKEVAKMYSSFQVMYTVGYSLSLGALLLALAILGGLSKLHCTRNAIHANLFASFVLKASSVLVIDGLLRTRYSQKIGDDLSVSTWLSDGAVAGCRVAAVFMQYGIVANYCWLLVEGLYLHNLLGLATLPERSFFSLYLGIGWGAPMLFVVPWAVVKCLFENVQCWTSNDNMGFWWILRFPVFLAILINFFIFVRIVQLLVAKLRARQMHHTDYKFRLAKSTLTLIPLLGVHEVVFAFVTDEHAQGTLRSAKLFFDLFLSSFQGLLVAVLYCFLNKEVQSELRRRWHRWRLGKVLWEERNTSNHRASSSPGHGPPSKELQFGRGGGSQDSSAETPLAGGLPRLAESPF

In patent publication US8809342B2, “Glucagon receptor modulators” (Pfizer Inc., priority 2010, dated 2014):

Biological target: human glucagon receptor (Homo sapiens, UniProt P47871)
Test: Glucagon cAMP assay (Cisbio cAMP detection)
Format: cell-based
Details: read-out: cAMP kb (nm); CHOK1 cells stably transfected with the human glucagon receptor; 100 pM glucagon challenge; Kb calculated from IC50 with a modified Cheng-Prusoff equation

Kb	SMILES
310 nM	O=C(O)CCNC(=O)c1ccc(NC(c2ccc(-c3ccc(F)cc3)cc2)C2CCCC2)nc1 (single isomer, unassigned) [Example 4.27]
57 nM	O=C(O)CCNC(=O)c1ccc(NC(c2ccc(-c3ccc(F)cc3)cc2)C2CCCC2)nc1 (single isomer, unassigned) [Example 4.26]
